# Reference: publication PMC4018390, “Important Role of CYP2J2 in Protein Kinase Inhibitor Degradation: A Possible Role in Intratumor Drug Disposition and Resistance” (PLoS ONE, 2014)
# Sequences of proteins named here, by UniProt entry; tags and fusion partners are left off.
# UniProt P08684, whole entry: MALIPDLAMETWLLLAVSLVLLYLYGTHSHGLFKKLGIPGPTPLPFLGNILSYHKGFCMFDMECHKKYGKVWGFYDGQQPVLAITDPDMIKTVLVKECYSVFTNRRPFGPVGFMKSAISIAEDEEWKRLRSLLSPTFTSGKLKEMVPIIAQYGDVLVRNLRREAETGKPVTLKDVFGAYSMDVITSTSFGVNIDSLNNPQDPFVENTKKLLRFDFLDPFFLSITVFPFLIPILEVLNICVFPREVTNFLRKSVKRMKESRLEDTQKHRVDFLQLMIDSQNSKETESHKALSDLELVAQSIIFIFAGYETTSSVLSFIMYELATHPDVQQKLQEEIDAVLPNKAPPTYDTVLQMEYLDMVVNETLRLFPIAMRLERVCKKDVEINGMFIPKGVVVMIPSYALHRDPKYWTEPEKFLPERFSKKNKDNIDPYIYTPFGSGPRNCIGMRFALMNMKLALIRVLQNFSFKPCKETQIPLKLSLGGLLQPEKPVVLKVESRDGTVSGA
# Experiments:
# CYP1A1 = molecular target: T1, CYP1A1 (Homo sapiens, UniProt P04798); test: Michaelis-Menten kinetics of TKI metabolite production, cDNA expressed CYP1A1 microsomes; conditions: Vmax/Km for production of the labelled metabolite, as fold difference of the intrinsic clearance of CYP3A4
# T1 sequence (P04798 1-512): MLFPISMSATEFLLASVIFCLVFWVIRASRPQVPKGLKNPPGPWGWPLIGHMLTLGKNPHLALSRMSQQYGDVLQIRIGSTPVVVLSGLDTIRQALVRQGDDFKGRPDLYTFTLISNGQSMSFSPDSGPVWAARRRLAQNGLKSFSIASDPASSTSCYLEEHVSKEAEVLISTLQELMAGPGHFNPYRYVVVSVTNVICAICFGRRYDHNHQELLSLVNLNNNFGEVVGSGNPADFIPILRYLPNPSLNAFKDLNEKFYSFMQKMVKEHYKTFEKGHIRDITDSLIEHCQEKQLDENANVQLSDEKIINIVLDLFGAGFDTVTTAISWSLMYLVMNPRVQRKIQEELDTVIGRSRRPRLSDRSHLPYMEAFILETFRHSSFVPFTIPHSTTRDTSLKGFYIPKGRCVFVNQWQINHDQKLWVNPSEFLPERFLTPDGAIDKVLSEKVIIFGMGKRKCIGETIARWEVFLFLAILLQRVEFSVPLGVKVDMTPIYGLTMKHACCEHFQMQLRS
# CYP2J2 = molecular target: T2, CYP2J2 (Homo sapiens, UniProt P51589); test: Michaelis-Menten kinetics of TKI metabolite production, cDNA expressed CYP2J2 microsomes; conditions: Vmax/Km for production of the labelled metabolite, as fold difference of the intrinsic clearance of CYP3A4
# T2 sequence (P51589 1-502): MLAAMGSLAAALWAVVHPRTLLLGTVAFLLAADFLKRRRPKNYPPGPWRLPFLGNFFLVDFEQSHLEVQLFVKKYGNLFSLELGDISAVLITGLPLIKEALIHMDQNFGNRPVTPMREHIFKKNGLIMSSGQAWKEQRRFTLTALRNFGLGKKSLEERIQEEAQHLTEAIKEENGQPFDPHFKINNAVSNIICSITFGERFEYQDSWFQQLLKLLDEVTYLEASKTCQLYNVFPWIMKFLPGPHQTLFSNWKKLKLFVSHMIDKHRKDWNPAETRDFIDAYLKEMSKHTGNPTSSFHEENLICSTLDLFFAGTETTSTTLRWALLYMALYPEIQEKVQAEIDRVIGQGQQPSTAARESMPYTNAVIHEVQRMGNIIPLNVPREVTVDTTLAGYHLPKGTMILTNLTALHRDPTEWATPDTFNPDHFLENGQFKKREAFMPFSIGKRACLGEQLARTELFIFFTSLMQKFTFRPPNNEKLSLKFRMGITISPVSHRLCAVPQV
# CYP3A4 = CYP3A4 (Homo sapiens, UniProt P08684); test: Michaelis-Menten kinetics of TKI metabolite production, cDNA expressed CYP3A4 microsomes; conditions: CYP3A4 (reference, set to 1.0); Vmax/Km for production of the labelled metabolite
substance,measurement,setting,value
N-oxide-nilotinib [NO-nilotinib #1],Relative Intrinsic Clearance,CYP1A1,0.5 fold diff.
same,Relative Intrinsic Clearance,CYP2J2,1.3 fold diff.
same,Relative Intrinsic Clearance,CYP3A4,1.0 fold diff.
